Test results published in patent US4801604A (priority 1987, dated 1989).

Legend:
Conditions in all cases: Example 7 Table 2, SC
[1] = tested on: Female CF-1 derived Upjohn mice; assay: Tail pinch analgesic test
[2] = tested on: Female CF-1 derived Upjohn mice; assay: Tail flick analgesic test
[3] = tested on: Female CF-1 derived Upjohn mice; assay: HCl writhing analgesic test

O=C(Cc1ccc(Cl)c(Cl)c1)N[C@@H]1CCC[C@@H]1N1CCCC1 (relative stereo)
Analgesic Screens ED50, Tail Pinch [1]: 71 mg/kg
Analgesic Screens ED50, Tail Flick [2]: 63 mg/kg
Analgesic Screens ED50, HCl Writhing [3]: 71 mg/kg
